Results published in PubChem BioAssay (NCI).
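Each compound was tested at five concentrations against cells in 96-well plates for 48 hours. Here, GI50 denotes the concentration required for 50% inhibition of growth. At the TGI there is no net growth.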

Experiments:
Assay in all cases: growth of human tumour cells (NCI), 48 h
A549 NSCLC = tested on: A549 NSCLC
ACHN renal = tested on: ACHN renal
CAKI-1 renal = tested on: CAKI-1 renal
COLO 205 colon = tested on: COLO 205 colon
DU-145 prostate = tested on: DU-145 prostate
HCC-2998 colon = tested on: HCC-2998 colon
HCT-116 colon = tested on: HCT-116 colon
HCT-15 colon = tested on: HCT-15 colon
HL-60(TB) leukemia = tested on: HL-60(TB) leukemia
HOP-62 NSCLC = tested on: HOP-62 NSCLC
HOP-92 NSCLC = tested on: HOP-92 NSCLC
HS 578T breast = tested on: HS 578T breast
HT29 colon = tested on: HT29 colon
IGROV1 ovarian = tested on: IGROV1 ovarian
K-562 leukemia = tested on: K-562 leukemia
LOX IMVI melanoma = tested on: LOX IMVI melanoma
M14 melanoma = tested on: M14 melanoma
MCF7 breast = tested on: MCF7 breast
MDA-MB-231 breast = tested on: MDA-MB-231 breast
MDA-MB-435 = tested on: MDA-MB-435
MDA-N = tested on: MDA-N
NCI-H226 lung = tested on: NCI-H226 lung
NCI-H23 lung = tested on: NCI-H23 lung
NCI-H460 lung = tested on: NCI-H460 lung
NCI-H522 lung = tested on: NCI-H522 lung
NCI/ADR-RES ovarian = tested on: NCI/ADR-RES ovarian
OVCAR-3 ovarian = tested on: OVCAR-3 ovarian
OVCAR-4 ovarian = tested on: OVCAR-4 ovarian
OVCAR-5 ovarian = tested on: OVCAR-5 ovarian
OVCAR-8 ovarian = tested on: OVCAR-8 ovarian
PC-3 prostate = tested on: PC-3 prostate
RPMI-8226 leukemia = tested on: RPMI-8226 leukemia
SF-295 CNS = tested on: SF-295 CNS
SK-MEL-2 melanoma = tested on: SK-MEL-2 melanoma
SK-MEL-28 melanoma = tested on: SK-MEL-28 melanoma
SK-MEL-5 melanoma = tested on: SK-MEL-5 melanoma
SK-OV-3 ovarian = tested on: SK-OV-3 ovarian
SN12C renal = tested on: SN12C renal
SNB-19 CNS = tested on: SNB-19 CNS
SNB-75 CNS = tested on: SNB-75 CNS
SW-620 colon = tested on: SW-620 colon
T-47D breast = tested on: T-47D breast
TK-10 renal = tested on: TK-10 renal
U251 CNS = tested on: U251 CNS
UACC-257 melanoma = tested on: UACC-257 melanoma
UO-31 renal = tested on: UO-31 renal

CCCC[S+](N)(=O)CCC(N)P(=O)(O)O.O=[N+]([O-])c1cc([N+](=O)[O-])c([O-])c([N+](=O)[O-])c1
GI50 (A549 NSCLC): > 100 µM | TGI (A549 NSCLC): > 100 µM | GI50 (ACHN renal): > 100 µM | TGI (ACHN renal): > 100 µM | GI50 (CAKI-1 renal): > 100 µM | TGI (CAKI-1 renal): > 100 µM | GI50 (COLO 205 colon): > 100 µM | TGI (COLO 205 colon): > 100 µM | GI50 (DU-145 prostate): > 100 µM | TGI (DU-145 prostate): > 100 µM | GI50 (HCC-2998 colon): > 100 µM | TGI (HCC-2998 colon): > 100 µM | GI50 (HCT-116 colon): > 100 µM | TGI (HCT-116 colon): > 100 µM | GI50 (HCT-15 colon): > 100 µM | TGI (HCT-15 colon): > 100 µM | GI50 (HL-60(TB) leukemia): > 100 µM | TGI (HL-60(TB) leukemia): > 100 µM | GI50 (HOP-62 NSCLC): > 100 µM | TGI (HOP-62 NSCLC): > 100 µM | GI50 (HOP-92 NSCLC): 92.3 µM | TGI (HOP-92 NSCLC): > 100 µM | GI50 (HS 578T breast): > 100 µM | TGI (HS 578T breast): > 100 µM | GI50 (HT29 colon): > 100 µM | TGI (HT29 colon): > 100 µM | GI50 (IGROV1 ovarian): > 100 µM | TGI (IGROV1 ovarian): > 100 µM | GI50 (K-562 leukemia): > 100 µM | TGI (K-562 leukemia): > 100 µM | GI50 (LOX IMVI melanoma): 37 µM | TGI (LOX IMVI melanoma): > 100 µM | GI50 (M14 melanoma): 77.2 µM | TGI (M14 melanoma): > 100 µM | GI50 (MCF7 breast): > 100 µM | TGI (MCF7 breast): > 100 µM | GI50 (MDA-MB-231 breast): > 100 µM | TGI (MDA-MB-231 breast): > 100 µM | GI50 (MDA-MB-435): 6.38 µM | TGI (MDA-MB-435): > 100 µM | GI50 (MDA-N): 24.4 µM | TGI (MDA-N): 63.4 µM | GI50 (NCI-H226 lung): > 100 µM | TGI (NCI-H226 lung): > 100 µM | GI50 (NCI-H23 lung): > 100 µM | TGI (NCI-H23 lung): > 100 µM | GI50 (NCI-H460 lung): > 100 µM | TGI (NCI-H460 lung): > 100 µM | GI50 (NCI-H522 lung): > 100 µM | TGI (NCI-H522 lung): > 100 µM | GI50 (NCI/ADR-RES ovarian): > 100 µM | TGI (NCI/ADR-RES ovarian): > 100 µM | GI50 (OVCAR-3 ovarian): > 100 µM | TGI (OVCAR-3 ovarian): > 100 µM | GI50 (OVCAR-4 ovarian): 64.2 µM | TGI (OVCAR-4 ovarian): > 100 µM | GI50 (OVCAR-5 ovarian): > 100 µM | TGI (OVCAR-5 ovarian): > 100 µM | GI50 (OVCAR-8 ovarian): > 100 µM | TGI (OVCAR-8 ovarian): > 100 µM | GI50 (PC-3 prostate): > 100 µM | TGI (PC-3 prostate): > 100 µM | GI50 (RPMI-8226 leukemia): > 100 µM | TGI (RPMI-8226 leukemia): > 100 µM | GI50 (SF-295 CNS): > 100 µM | TGI (SF-295 CNS): > 100 µM | GI50 (SK-MEL-2 melanoma): > 100 µM | TGI (SK-MEL-2 melanoma): > 100 µM | GI50 (SK-MEL-28 melanoma): 63.9 µM | TGI (SK-MEL-28 melanoma): > 100 µM | GI50 (SK-MEL-5 melanoma): > 100 µM | TGI (SK-MEL-5 melanoma): > 100 µM | GI50 (SK-OV-3 ovarian): > 100 µM | TGI (SK-OV-3 ovarian): > 100 µM | GI50 (SN12C renal): > 100 µM | TGI (SN12C renal): > 100 µM | GI50 (SNB-19 CNS): > 100 µM | TGI (SNB-19 CNS): > 100 µM | GI50 (SNB-75 CNS): > 100 µM | TGI (SNB-75 CNS): > 100 µM | GI50 (SW-620 colon): > 100 µM | TGI (SW-620 colon): > 100 µM | GI50 (T-47D breast): > 100 µM | TGI (T-47D breast): > 100 µM | GI50 (TK-10 renal): > 100 µM | TGI (TK-10 renal): > 100 µM | GI50 (U251 CNS): > 100 µM | TGI (U251 CNS): > 100 µM | GI50 (UACC-257 melanoma): > 100 µM | TGI (UACC-257 melanoma): > 100 µM | GI50 (UO-31 renal): > 100 µM | TGI (UO-31 renal): > 100 µM
